Reference: PMC4705222, “Identification of a Catalase-Phenol Oxidase in Betalain Biosynthesis in Red Amaranth (Amaranthus cruentus)” (Frontiers in Plant Science, 2016)

By UniProt entry, the sequences of proteins in these tests, tags left out. Residues count along the entry.
UniProt A0A2Z0PTH5, 1-492: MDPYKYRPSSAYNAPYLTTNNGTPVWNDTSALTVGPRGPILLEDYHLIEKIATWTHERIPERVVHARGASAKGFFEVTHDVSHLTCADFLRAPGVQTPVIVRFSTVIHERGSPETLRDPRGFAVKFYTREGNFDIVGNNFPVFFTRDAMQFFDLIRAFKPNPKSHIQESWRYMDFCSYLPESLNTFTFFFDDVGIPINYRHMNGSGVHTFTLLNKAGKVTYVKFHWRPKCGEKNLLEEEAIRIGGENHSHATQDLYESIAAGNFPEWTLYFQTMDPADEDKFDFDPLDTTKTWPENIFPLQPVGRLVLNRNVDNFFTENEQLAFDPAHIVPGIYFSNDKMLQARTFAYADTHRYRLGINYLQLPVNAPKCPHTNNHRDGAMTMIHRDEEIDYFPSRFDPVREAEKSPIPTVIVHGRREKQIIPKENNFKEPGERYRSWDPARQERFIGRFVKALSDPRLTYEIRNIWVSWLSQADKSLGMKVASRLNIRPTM

Target: AcCATPO (Amaranthus cruentus, UniProt A0A2Z0PTH5)
Experiment: catalase activity, H2O2 decrease at […] nm
Details: H2O2 substrate (14 mM in standard assay), pH 7.0, 20 °C

[N-]=[N+]=N
% loss of activity at 1 mM: ~ 95%
